The structures appear in SMILES notation. Only a part is listed here, and it is no random draw. Some salts and complexes are drawn in separate pieces, as the source files them; their charges need not balance. Activity calls are given as the source filed them.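 Rule for the calls: active = inhibition above the mean of compounds falling within the control limits plus 3 SD of them (cut at about 14% in these data); inactive = the rest.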

Protein sequences, listed by entry. Tags and fused reporters are not part of them.
UniProt P02675, whole entry, looked up: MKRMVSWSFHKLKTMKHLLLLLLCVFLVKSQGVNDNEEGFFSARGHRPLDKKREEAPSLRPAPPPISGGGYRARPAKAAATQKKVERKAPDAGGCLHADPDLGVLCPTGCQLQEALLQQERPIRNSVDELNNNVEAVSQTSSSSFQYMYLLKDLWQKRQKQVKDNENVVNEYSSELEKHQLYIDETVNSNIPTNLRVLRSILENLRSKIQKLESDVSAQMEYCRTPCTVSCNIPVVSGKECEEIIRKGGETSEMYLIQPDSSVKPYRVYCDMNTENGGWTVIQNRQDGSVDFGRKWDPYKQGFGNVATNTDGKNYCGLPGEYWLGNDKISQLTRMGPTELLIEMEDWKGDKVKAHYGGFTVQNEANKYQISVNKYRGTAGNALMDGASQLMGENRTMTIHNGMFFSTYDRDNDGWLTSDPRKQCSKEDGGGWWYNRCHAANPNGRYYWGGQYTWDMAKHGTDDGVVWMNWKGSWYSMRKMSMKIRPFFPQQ

The assay has as its target Fibrinogen beta chain (Homo sapiens) (UniProt P02675). Nature of the assay: small molecules displacing Tn7 from DD(E) complex – biochemical, fluorescence polarization, human fibrin, Tn7 probe, primary screen (AID 720508).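 Note: 0% = plate median of compound wells and 100% = 10 µM Aha-Tn7 peptide.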 The conditions noted are these: FP displacement of FITC-Tn7 peptide from fibrin DD(E); at 8.3 µM; active compounds read high; 0% = median of compound wells per plate. In general terms: Polarisation of emitted light reports the rotation of a fluorescent probe.
On to `O=[N+]([O-])c1cc([N+](=O)[O-])c(O)c([N+](=O)[O-])c1.c1ccc(Oc2ccncc2)cc1`, for which the inhibition (in general, the relative decrease from the control value, in per cent) was inactive: 1.69%.

Consider `CCOC(=O)c1ccc(NP(C)(=O)Oc2ccc(OC)cc2)cc1` (centres undefined), for which the inhibition is inactive: -6.6%. For `CCOP(C)(=S)SCC(=O)NC(C)C(=O)O` (centres undefined) the value was inactive: 7.24%; for `CP(=O)(Nc1ccccn1)Oc1ccc(Cl)cc1` (centres undefined), inactive: 4.09%; for `CP(=O)(Oc1ccccc1)OC(c1ccccc1)C(F)(F)F` (centres undefined), inactive: 6.74%. For `CP(=O)(Nc1ccc(SC(F)(F)F)cc1)Oc1ccc(Cl)cc1` (centres undefined) the value was inactive: -2.35%; for `Cc1cccc(C)c1OP(C)(=O)Nc1ccc(SC(F)(F)F)cc1` (centres undefined), inactive: 10.1%; for `Cc1cc(C)cc(OP(C)(=O)Nc2ccc(SC(F)(F)F)cc2)c1` (centres undefined), inactive: 4.26%. Regarding `CCc1ccc(OP(C)(=O)N2CCN(c3ccc([N+](=O)[O-])cc3)CC2)cc1` (centres undefined), the inhibition is inactive: -1.05%.

`CP(=O)(NC(=O)Nc1ccccc1)Oc1ccccc1` (centres undefined): the inhibition was inactive: -2.6%. For `CP(=S)(Nn1cnnc1)Oc1ccccc1` (centres undefined) the value was inactive: -5.75%; for `CP(=O)(Nc1ccccc1Br)Oc1ccccc1` (centres undefined), inactive: 3%.

Consider `COc1ccccc1OP(C)(=O)Nc1ccccc1` (centres undefined), for which the inhibition is inactive: 4.35%. For `Cc1ccc(NP(C)(=O)Oc2ccccc2)c(C)c1` (centres undefined), the inhibition was inactive: 3.54%. For the compound `COc1ccccc1OP(C)(=O)Nc1ccc(C)cc1` (centres undefined), the inhibition was inactive: -0.67%.

Take `CCOC(=O)c1ccc(NP(C)(=O)Oc2ccccc2)cc1` (centres undefined): the inhibition was inactive: 2%. `Cc1cc(C)cc(OP(C)(N)=O)c1` (centres undefined): the inhibition is inactive: 7.48%. To `COc1ccc(OP(C)(=O)Nc2cccc(F)c2)cc1` (centres undefined) belongs inactive: -1.1%.

With `COc1ccccc1OP(C)(=O)Nc1cc(Cl)ccc1C` (centres undefined), the inhibition is inactive: -8.61%. As to `O=[N+]([O-])c1cc([N+](=O)[O-])c(Nc2cccnc2)c([N+](=O)[O-])c1`, the inhibition is inactive: -13.4%. For `O=[N+]([O-])c1ccc2c(c1)C=Nc1ccccc1O2` the value was inactive: 0.12%; for `Cc1cccc(C)c1OP(C)(N)=O` (centres undefined), inactive: 1.78%; for `CC(C)(C)c1ccc(OP(C)(=O)Nc2ccc(SC(F)(F)F)cc2)cc1` (centres undefined), inactive: 2.75%. To `COc1ccccc1-c1ccccn1.O=[N+]([O-])c1cc([N+](=O)[O-])c(O)c([N+](=O)[O-])c1` belongs inactive: 4.17%; to `CCN(CC)CCCOC(=O)C(O)(c1ccccc1)c1ccccc1`, inactive: -0.88%. On to `Cc1ccc(C)c(NP(C)(=O)Oc2ccccc2)c1` (centres undefined), for which the inhibition was inactive: 1.08%. To `CP(=O)(Nc1cccc(Br)c1)Oc1ccccc1` (centres undefined) belongs inactive: -1.15%; to `Cc1cc(C)cc(OP(C)(=O)Nc2ccccn2)c1` (centres undefined), inactive: 7.03%. To `COc1ccccc1OP(C)(=O)Nc1cccc(Br)c1` (centres undefined) belongs inactive: 6.34%; to `CCOC(=O)c1ccc(NP(C)(=O)Oc2cc(C)cc(C)c2)cc1` (centres undefined), inactive: -7.48%. For `Cc1cc(C)cc(OP(C)(=O)Nc2ccc(C)cc2C)c1` (centres undefined), the inhibition is inactive: -6.27%. As for `CC1=NCCc2c1[nH]c1ccccc21.O=[N+]([O-])c1cc([N+](=O)[O-])c(O)c([N+](=O)[O-])c1`, the inhibition was inactive: -5.63%. To `O=C(O)c1cccc(Nc2c([N+](=O)[O-])cc([N+](=O)[O-])cc2[N+](=O)[O-])c1` belongs inactive: -1.3%; to `CN1CCCCC1COC(=O)C1(O)c2ccccc2CCc2ccccc21` (centres undefined), inactive: 0.08%; to `COc1ccccc1OP(C)(=O)Nc1c(C)cccc1C` (centres undefined), inactive: -7.06%. On to `COc1ccc(-c2ccccn2)cc1.O=[N+]([O-])c1cc([N+](=O)[O-])c(O)c([N+](=O)[O-])c1`, for which the inhibition was inactive: 4.1%. For `CP(=O)(Nc1ccc(SC(F)(F)F)cc1)Oc1ccccc1` (centres undefined) the value was inactive: 2.32%; for `CCCOc1ccc(NP(C)(=O)Oc2ccc(Cl)cc2)cc1` (centres undefined), inactive: 1.67%.

As for `CCOC(=O)C(CC)C1=NC(C)(C)Cc2ccccc21.O=[N+]([O-])c1cc([N+](=O)[O-])c(O)c([N+](=O)[O-])c1` (centres undefined), the inhibition is inactive: 1.29%. For `O=[N+]([O-])c1cc([N+](=O)[O-])c(Nc2nnnn2CCO)c([N+](=O)[O-])c1` the value was inactive: -2.51%; for `O=[N+]([O-])c1cc([N+](=O)[O-])c(-c2cnn(-c3ccccc3)c2)c([N+](=O)[O-])c1`, inactive: 9.18%. To `Cc1nc2ccc3ccccc3c2s1.O=[N+]([O-])c1cc([N+](=O)[O-])c(O)c([N+](=O)[O-])c1` belongs inactive: 4.94%. To `O=[N+]([O-])c1cc([N+](=O)[O-])c(-n2nnc3ccccc32)c([N+](=O)[O-])c1` belongs inactive: 8.59%. Take `CN(Cc1cccnc1)C(=O)COc1ccc(Cl)c(Cl)c1.O=[N+]([O-])c1cc([N+](=O)[O-])c(O)c([N+](=O)[O-])c1`: the inhibition is inactive: 3.96%.

Regarding `CP(=O)(Nc1ccc2c(c1)OCCO2)Oc1ccccc1` (centres undefined), the inhibition is inactive: 5.87%. Regarding `Cc1ccccc1NP(C)(=O)Nc1ccccc1C`, the inhibition is inactive: -1.49%.

Take `O=[N+]([O-])c1cc([N+](=O)[O-])c(C(F)(F)F)c([N+](=O)[O-])c1O`: the inhibition is inactive: 1.82%. To `CP(=O)(Nc1ccc(SC(F)(F)F)cc1)Oc1ccc(F)cc1` (centres undefined) belongs inactive: -2.25%; to `CCOP(C)(=S)SCC(=O)NC(C)(CC)C(=O)O` (centres undefined), inactive: 1.2%; to `CCOP(=O)(CC)OCC`, inactive: 2.08%. For `O=[N+]([O-])c1ccc(OP2(=O)COCCO2)cc1` (centres undefined) the value was inactive: -6.01%; for `Cc1cc(-c2cccc3ccccc23)c(C)cn1.O=[N+]([O-])c1cc([N+](=O)[O-])c(O)c([N+](=O)[O-])c1`, inactive: -0.68%; for `O=[N+]([O-])c1cc([N+](=O)[O-])c(NCC2CCS(=O)(=O)C2)c([N+](=O)[O-])c1` (centres undefined), inactive: 4.36%. Turning to `Cc1c(C(c2ccc3c(c2)OCO3)c2c(C)n(C)n(-c3ccccc3)c2=O)c(=O)n(-c2ccccc2)n1C.O=[N+]([O-])c1cc([N+](=O)[O-])c(O)c([N+](=O)[O-])c1`, the inhibition was inactive: 5.6%.

Turning to `COc1ccc(OP(C)(=O)Nc2cccc(Br)c2)cc1` (centres undefined), the inhibition was inactive: -1.19%. Turning to `CN(C)CCOC(=O)C(O)(c1ccccc1)C1CCCCC1` (centres undefined), the inhibition was inactive: -1.52%.

With `COc1ccc(NP(C)(=O)Oc2ccccc2OC)cc1` (centres undefined), the inhibition is inactive: -12.1%. For `Cc1c([N+](=O)[O-])cc([N+](=O)[O-])c(Br)c1[N+](=O)[O-]` the value was inactive: -5.63%; for `CCN(CC)CCCOC(=O)C(O)(c1ccccc1)C1CCCCC1` (centres undefined), inactive: -6.97%; for `CP(=O)(Nc1ccccc1)Oc1ccc(F)cc1` (centres undefined), inactive: -4.62%.

Take `O=[N+]([O-])c1cc([N+](=O)[O-])c(OC2CCCCC2O)c([N+](=O)[O-])c1` (centres undefined): the inhibition is inactive: -3.8%. For `CCCCCOc1ccc(NP(C)(=O)Oc2ccc(Cl)cc2Cl)cc1` (centres undefined) the value was inactive: -4.86%. Turning to `CCN(CC)CCCNc1ccccc1[N+](=O)[O-].O=[N+]([O-])c1cc([N+](=O)[O-])c(O)c([N+](=O)[O-])c1`, the inhibition is inactive: -2.74%.

On to `CCOC(=O)c1ccc(NP(C)(=O)Oc2ccc(F)cc2)cc1` (centres undefined), for which the inhibition was inactive: -1.9%. For the compound `COc1ccc(OP(C)(=O)Nc2ccc(SC(F)(F)F)cc2)cc1` (centres undefined), the inhibition was inactive: 0.17%. To `O=C(OC1CN2CCC1CC2)c1ccc([N+](=O)[O-])cc1` (centres undefined) belongs inactive: -3.26%.

Regarding `O=C(OCCN1CCN(CCOCc2ccccc2)CC1)C(O)(c1ccccc1)c1ccccc1`, the inhibition is inactive: 4.4%. With `COc1ccc2c(c1O)-c1c(O)c(OC)cc3c1[C@H](C2)[N+](C)(C)CC3.O=[N+]([O-])c1cc([N+](=O)[O-])c([O-])c([N+](=O)[O-])c1[O-]`, the inhibition was inactive: -3.89%.

On to `O=[N+]([O-])c1cc([N+](=O)[O-])c(Nc2ccc(Cl)cc2)c([N+](=O)[O-])c1`, for which the inhibition is inactive: 1.63%.

As for `CP(=O)(Nc1ccccc1F)Oc1ccccc1` (centres undefined), the inhibition was inactive: 0.44%. To `CC(C)c1ccc(OP(C)(=O)Nc2ccc(SC(F)(F)F)cc2)cc1` (centres undefined) belongs inactive: 0.85%; to `O=[N+]([O-])c1cc([N+](=O)[O-])c(Nc2ccccn2)c([N+](=O)[O-])c1`, inactive: -3.75%; to `Cc1c(NP(C)(=O)Oc2ccc(C(C)C)cc2)c(=O)n(-c2ccccc2)n1C` (centres undefined), inactive: 8.25%. To `COc1ccccc1OP(C)(=O)Nc1ccc(C)cc1C` (centres undefined) belongs inactive: 0.74%; to `CP(=O)(Nc1ccccn1)Oc1ccccc1` (centres undefined), inactive: 5.87%; to `CCc1ccc(OP(C)(=O)O)cc1`, inactive: -4.76%. For `COc1ccccc1OP(C)(=O)Nc1ccc(Br)cc1` (centres undefined) the value was inactive: -2.77%; for `COc1ccc(OP(C)(=O)Nc2ccccn2)cc1` (centres undefined), inactive: 2.6%. In the case of `CN(C)CCOC(=O)C(O)(c1ccccc1)C1CCCC1` (centres undefined), the inhibition is inactive: -9.74%. On to `CP(=O)(OCCOc1ccccc1)OCCOc1ccccc1`, for which the inhibition is inactive: 1.09%. `CP(=O)(Nc1ccc(Cl)cc1Cl)Oc1ccccc1` (centres undefined): the inhibition is inactive: 4.27%. To `CCCCCCCCCCCCCCCC1C[N+](C)(C)CCOP(C)(=O)O1` (centres undefined) belongs inactive: 0.09%. For `Cc1cc(C)cc(OP(C)(=O)Nc2cccc(C(F)(F)F)c2)c1` (centres undefined) the value was inactive: 5.33%; for `O=C1C(O)=C([N+](=O)[O-])C(=O)C(O)=C1[N+](=O)[O-]`, inactive: -2.21%; for `COc1ccccc1OP(C)(=O)Nc1ccc(C)c(C)c1` (centres undefined), inactive: -1.31%. To `COc1ccc(OP(C)(=O)Nc2ccccc2Br)cc1` (centres undefined) belongs inactive: -0.36%; to `Nc1ccc2c(ccc3cccnc32)n1.O=[N+]([O-])c1cc([N+](=O)[O-])c(O)c([N+](=O)[O-])c1`, inactive: 6.66%.

Turning to `CCOC(=O)c1ccc(NP(C)(=O)Oc2ccc(Cl)cc2)cc1` (centres undefined), the inhibition is inactive: 0.42%.

Turning to `CP(=O)(OC12CC3CC(CC(C3)C1)C2)OC12CC3CC(CC(C3)C1)C2`, the inhibition is inactive: 2.51%.

Take `CC(C)(C)c1ccc(OP(C)(=O)O)cc1`: the inhibition is inactive: -4.01%. For the compound `COc1ccccc1OP(C)(=O)Nc1ccccc1Br` (centres undefined), the inhibition is inactive: -3.93%. For `CP(=O)(Nc1ccc(Cl)cc1)Oc1ccc(F)cc1` (centres undefined) the value was inactive: 7.48%; for `CN(C)C(=O)c1c([N+](=O)[O-])cc([N+](=O)[O-])cc1[N+](=O)[O-]`, inactive: 4.21%. With `COc1ccc(OP(C)(=O)Nc2ccc(Br)cc2)cc1` (centres undefined), the inhibition was inactive: -0.87%. On to `CCN(CC)CC(O)COC(=O)C(O)(c1ccccc1)C1CCCCC1` (centres undefined), for which the inhibition was inactive: -1.84%. As for `O=C(OCCCN1CCCC1)C(O)(c1ccccc1)C1CCCCC1` (centres undefined), the inhibition was inactive: 7.26%. As for `COc1ccccc1OP(C)(=O)Nc1c(C)n(C)n(-c2ccccc2)c1=O` (centres undefined), the inhibition was inactive: 1.32%. For `CCc1ccc(OP(C)(=O)Nc2cccnc2)cc1` (centres undefined) the value was inactive: 1.73%; for `CP(=O)(Oc1ccccc1)N1CCOC1=O` (centres undefined), inactive: 0.9%.

For the origin of these results see PubChem BioAssay AID720508 (The Scripps Research Institute Molecular Screening Center, 2013).
